US8420820B2, “Pyrrolopyridinylpyrimidin-2-ylamine derivatives” (Merck Patent GmbH, priority 2008, dated 2013)

Sequences of proteins named here, by UniProt entry; tags and fusion partners are left off. Residues count along the entry.
UniProt O15530, 51-556 limits assumed: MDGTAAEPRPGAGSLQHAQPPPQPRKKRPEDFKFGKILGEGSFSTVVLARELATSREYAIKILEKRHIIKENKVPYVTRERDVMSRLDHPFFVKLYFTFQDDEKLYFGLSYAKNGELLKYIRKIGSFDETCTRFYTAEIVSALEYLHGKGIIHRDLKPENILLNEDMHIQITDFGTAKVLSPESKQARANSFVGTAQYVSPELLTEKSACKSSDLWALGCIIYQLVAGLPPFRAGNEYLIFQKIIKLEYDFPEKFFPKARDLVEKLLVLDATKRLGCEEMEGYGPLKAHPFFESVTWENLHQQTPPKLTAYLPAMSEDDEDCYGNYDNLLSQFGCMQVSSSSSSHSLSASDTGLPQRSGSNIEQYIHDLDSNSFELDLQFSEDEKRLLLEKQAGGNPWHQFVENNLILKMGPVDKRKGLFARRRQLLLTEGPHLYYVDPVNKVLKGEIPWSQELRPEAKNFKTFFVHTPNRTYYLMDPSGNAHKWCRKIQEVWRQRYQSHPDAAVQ

Tests used:
[1] = target: PDK1 (Homo sapiens, UniProt O15530); assay: Test for the inhibition of PDK1 (flashplate, 33P-ATP); format: biochemical; settings: read-out: IC50 PDK1, His6-PDK1 3.4 nM, 4 μM ATP, 30° C., 60 min
Protocol: The experimental batches are carried out in a flashplate system with 384 wells/microtitration plate.
In each case, the PDK1 sample His6-PDK1(SEQ ID NO: 2)(1-50)(3.4 nM), the PDK1 substrate biotin-bA-bA-[…] (SEQ ID NO: 3) (400 nM), 4 μM ATP (with 0.2 μCi of ^33P-ATP/well) and the test substance in 50 μl of conventional experimental solution per well are incubated at 30° C. for 60 min. The test substances are employed in corresponding concentrations (if desired in a dilution series). The control is carried out without test substance. The reaction is stopped using standard methods and washed. The activity of the kinase is measured via the incorporated radioactivity in top count. In order to determine the non-specific kinase reaction (blank value), the experimental batches are carried out in the presence of 100 nM staurosporin.
The radioactivity (decompositions per minute) of the blank value (no use of test substance in the presence of staurosporin) is subtracted from all other radioactivity values. The controls (kinase activity without test substance) are set equal to 100 percent and all other radioactivity values (after subtracting the blank value) are expressed set in relation thereto (for example in % of the control).
IC50 values (50% inhibition) are determined with the aid of statistics programmes, such as, for example, RS1.

[2] = test system: PDK1 kinase activity in PC3 cells (phospho-T308-PKB); assay: Cellular testing of PDK1 kinase inhibitors in PC3 cells (Luminex, phospho-T308-PKB); settings: read-out: IC50 [PC3 P-PKB Thr308], 30 min with test substance, serum-free, phospho-T308-PKB by Luminex

**Q.** Which IC50 [1] does the source give for `CCCCc1cc(-c2c[nH]c3ncc(-c4cnn(CC(=O)N5CCCC5)c4)cc23)nc(N)n1` here?
**A.** 10 to 1000 nM

**Q.** What about the IC50 [2] of the same molecule?
**A.** 1000 to 10000 nM
